{"source": "ChEMBL document CHEMBL2057129", "about": "“Evaluation of synthetic FK506 analogues as ligands for the FK506-binding proteins 51 and 52” (J Med Chem, 2012)", "molecular_target": "T1, Peptidyl-prolyl cis-trans isomerase FKBP5 (Homo sapiens, UniProt Q13451)", "T1 sequence (Q13451 whole entry)": "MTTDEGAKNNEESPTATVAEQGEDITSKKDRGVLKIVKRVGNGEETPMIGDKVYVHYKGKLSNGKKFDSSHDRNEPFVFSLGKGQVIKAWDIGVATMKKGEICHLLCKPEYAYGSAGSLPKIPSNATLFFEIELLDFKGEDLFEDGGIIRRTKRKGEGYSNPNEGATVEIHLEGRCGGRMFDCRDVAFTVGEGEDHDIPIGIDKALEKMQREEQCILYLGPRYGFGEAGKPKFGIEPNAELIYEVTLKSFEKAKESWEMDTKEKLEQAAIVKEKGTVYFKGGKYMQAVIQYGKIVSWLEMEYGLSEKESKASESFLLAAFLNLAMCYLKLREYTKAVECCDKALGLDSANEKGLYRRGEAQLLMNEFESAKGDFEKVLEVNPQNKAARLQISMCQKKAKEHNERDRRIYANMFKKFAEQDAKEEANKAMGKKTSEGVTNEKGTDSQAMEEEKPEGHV", "experiment": "Binding affinity to FKBP51 FK1 domain by fluorescence polarization assay", "data": [{"smiles": "CCC(C)(C)C(=O)C(=O)N1CCCC[C@H]1C(=O)O[C@H](CCc1ccc(OC)c(OC)c1)c1cccc(OCC(=O)O)c1", "values": [{"measurement": "IC50", "result": 8.36, "unit": "µM"}]}]}
